# Measured values: PubChem BioAssay AID434978 (Johns Hopkins Ion Channel Center, 2010)
# The list shows a part of the results, in another mix than the full data. Some results for these compounds are left out of this collection, so the calls shown say nothing about other tests. The source made the active and inactive calls.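 Rule for the calls: active = primary screen active whose calcium signal fell more than 3 SD beyond the full-serotonin control mean in both duplicate plates; inactive = the rest.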
# Test: serotonin-gated TRPC4 signal block – cell-based, second counter screen, HEK293 TRPC4/5HT1a, Fluo-4, counter-screen for TRPC4 inhibitor project, confirmation (AID 434978);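 note: serotonin given first at submaximal then at maximal dose after compound preincubation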
# Conditions: Fluo-4 calcium flux, at 10 µM, serotonin added to trigger calcium flux
row,Structure (SMILES),outcome
1,CN(C)c1ccc(C(=O)NCC2(N(C)C)CCCCC2)cc1,inactive
